Assay results published in ChEMBL document CHEMBL4613282, “Novel N-Substituted Benzomorphan-Based Compounds: From MOR-Agonist/DOR-Antagonist to Biased/Unbiased MOR Agonists” (ACS Med Chem Lett, 2020).

Amino acid sequences for entries named in this document (tags omitted). A change or cut given only in a name is not applied to a line headed by its entry.
UniProt P41144: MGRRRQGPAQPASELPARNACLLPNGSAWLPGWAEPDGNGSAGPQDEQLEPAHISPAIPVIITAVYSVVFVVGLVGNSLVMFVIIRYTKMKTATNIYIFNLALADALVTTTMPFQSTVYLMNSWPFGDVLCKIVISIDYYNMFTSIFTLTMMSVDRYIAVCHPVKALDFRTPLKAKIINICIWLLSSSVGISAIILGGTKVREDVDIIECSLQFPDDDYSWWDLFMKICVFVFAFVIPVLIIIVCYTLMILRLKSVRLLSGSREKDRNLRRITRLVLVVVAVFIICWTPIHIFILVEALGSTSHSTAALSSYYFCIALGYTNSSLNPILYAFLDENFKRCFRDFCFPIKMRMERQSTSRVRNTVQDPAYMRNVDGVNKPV

Target: Kappa-type opioid receptor (Cavia porcellus, UniProt P41144)
Assay: Displacement of [3H]-U69,593 from KOR in guinea pig brain membranes incubated for 30 mins by liquid scintillation counting

Q: For `CN(C(=O)Cc1ccc(Cl)c(Cl)c1)C1CCCCC1N1CCCC1` (stereo unspecified), which Ki is on record?
A: 0.27 nM
